Measured values taken from patent US20230293647A1.

Target: Angiotensin II (UniProt P01019)
Experiment: SPR, ACE2-Fc captured on Protein A, angiotensin II as analyte, 1:1 Langmuir fit

Question: Which Kd does the source give for “Active ACE2 (18-740)-Fc (ACRO biosystems) (from UniProt Q9BYF1 18-740) (Fc fusion)” here?
Answer: The Kd was 117 nM.
